Screening results (PubChem)
Hits are enriched below; roughly 2% of the tested compounds scored in any of these assays.
Abeta yeast res = qHTS for compounds that reverse cellular toxicity of Amyloid beta (A-beta) peptide in yeast: Primary Screen; yeast expressing A-beta42, growth rescue, OD600, 48 h; response scale: 0% DMSO, 100% iron-clioquinol control; Potency, µM (doses to about 46.1 µM), hits mostly activators; 410,000 tested, 0.063% active; also: nearly all actives have a fitted effect of over 55% in size
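Yeast growth medium received pinned compounds, then yeast cells expressing toxic A-beta were added; plates incubated at 30 C for 48 hr. Growth read as absorbance at 600 nm, normalized to DMSO and equimolar FeCl3 plus clioquinol controls.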
S-ASM inh = Inhibitors of Secretory Acid Sphingomyelinase (S-ASM): qHTS. Potency, µM (series often up to 57.5 µM), most hits filed as inhibitors. placental ASM, HMU-PC fluorogenic substrate, 60 min. 340,000 tested, 0.006% active
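Human placenta-derived ASM enzyme was preincubated with compound for 10 minutes at room temperature, then given fluorogenic substrate HMU-PC0 (9 uM final) for 60 minutes at 37 °C; a pH 10 stop preceded fluorescence reading at Ex 386/Em 447 nm.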
TDP-43 yeast inh = qHTS of TDP-43 Inhibitors. Potency, µM (highest dose often 46.1 µM), hits mostly activators. 410,000 tested, 1.8% active. TDP-43 expressing yeast growth rescue, BacTiter-Glo, 24 h; also: nearly all actives have a fitted effect of over 50% in size
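Cell-based yeast growth screen: TDP-43 expression induced in galactose, inoculum OD600=0.02 after raffinose pregrowth to mid-log. Read-out BacTiter-Glo luminescence at 24 hr, 30 deg C; inhibition of toxicity seen as signal increase.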
Rango complex inh = qHTS Assay for Inhibitors of Rango (Ran-regulated importin-beta cargo) - Importin beta complex formation | AID 540263, 2011 | Potency, µM (top dose mostly 92.2 µM) | Importin subunit beta-1 (Homo sapiens), Q14974 | Rango CFP/YFP FRET sensor + importin beta, 45 min | 340,000 tested, 0.031% active; calls by dose curve; also: nearly all actives have a fitted effect of over 15% in size
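FRET biosensor Rango (snurportin 1 IBB between N-terminal EYFP and C-terminal Cerulean), 50 nM in PBS/1 mM DTT/0.02% Tween-20/0.1% BSA, preincubated 5 min RT with compound; 0.125 microM importin beta added, 45 min RT, CFP/YFP FRET ratio read.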
aSyn yeast inh = qHTS of alpha-syn Inhibitors | Yeast expressing alpha-synuclein, growth rescue, BacTiter-Glo, 24 h | Potency, µM (series often up to 46.1 µM), most hits filed as activators | 370,000 tested, 0.14% active | AID 652106, 2013; also: nearly all actives have a fitted effect of over 65% in size
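Galactose-induced alpha-syn yeast (OD600=0.02, raffinose-pregrown) + pinned cpd, 24 hr, 30 deg C; growth by BacTiter-Glo luminescence. Growth restoration scores as activation.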
Rango release inh = qHTS Assay for Inhibitors of RanGTP induced Rango (Ran-regulated importin-beta cargo) - Importin beta complex dissociation; 340,000 tested, 0.071% active; Potency, µM (titrated, usually from 46.1 µM); Snurportin-1 (Homo sapiens) + GTP-binding nuclear protein Ran (Homo sapiens) + Importin …; Biochemical FRET Rango-importin beta, RanGTP-induced dissociation; calls by dose curve; also: nearly all actives have a fitted effect of over 45% in size
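Recombinant Rango FRET biosensor (EYFP–snurportin 1 IBB–cerulean CFP10) at 0.1 uM premixed with 0.25 uM importin beta in PBS, 1 mM DTT, 0.02% Tween-20, 0.1% BSA. Compound added 5 min; RanGTP-RCC1 (0.6 uM Ran, 2 mM GTP, 0.2 uM RCC1) then triggers release, read at 45 min.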
A number is an active result; - = inactive; ? = inconclusive; . = no result; [ ] = dose if it differs, or a comment. Unless noted, calls follow the shape of the dose curve; as a rule, active = well fitted curve in the direction sought with a large enough effect; inconclusive = small, poorly fitted or top-dose-only effect, or another doubt; inactive = no such curve, though single readings can be large; an effect the other way counts as inactive or inconclusive.

SMILES	Abeta yeast res	S-ASM inh	TDP-43 yeast inh	Rango complex inh	aSyn yeast inh	Rango release inh
O=C(Nc1nnc(-c2ccc3c(c2)CCCC3)o1)C1COc2ccccc2O1 (stereo not given)	?	-	18µM	-	6.3µM	-
CCOc1cc(CNC(=O)NC2COc3ccccc3C2)cc(OCC)c1OCC (stereo not given)	-	.	-	.	.	.
CCOc1ccc(-n2nc(CO)c(C(=O)NCc3ccc(Cl)cc3)n2)cc1	-	.	-	.	.	.
O=C(Nc1ncc2c(n1)-c1ccccc1CC2)c1ccc(F)cc1	-	-	10µM	-	-	-
O=C(Nc1ncc2c(n1)-c1ccccc1CC2)c1ccccc1	-	-	13µM	-	-	-
Cc1ccc(SCC(=O)Nc2ccc3oc(-c4cccc(Cl)c4)nc3c2)cc1	-	.	-	.	.	.
O=C(COc1ccccc1C(=O)Nc1ccccc1)Nc1ccccc1-c1ccccc1	.	.	.	.	-	.
COCc1cc(Sc2ccc(Cl)cc2)nc(C)n1	-	-	11µM	-	-	-
Cc1nc(CS(=O)(=O)c2ccc(Cl)cc2)cc(Sc2ccc(Cl)cc2)n1	-	-	28µM	-	-	-
O=S(=O)(Cc1cc(Sc2ccc(Cl)cc2)nc(-c2ccccc2)n1)c1ccccc1	-	-	-	-	-	-
CCOc1ccc(C(=O)Nc2ccc3nc(SCC(=O)N4CCc5ccccc54)sc3c2)cc1	-	.	-	.	.	.
CCc1cccc(-n2c(=O)c3cccnc3n2CC(=O)Nc2c(C)cc(C)cc2C)c1	-	.	-	.	.	.
CCOc1ccc(S(=O)(=O)Nc2ccc3c(c2)N(C(C)=O)CCC3)cc1	-	.	-	.	.	.
CC(/C=N/NC(=O)c1cc(C(C)C)[nH]n1)=C\c1ccccc1	-	-	-	-	4µM	-
O=c1[nH]c(SCc2ccc(Br)cc2)nc2c1CCCC2	-	.	-	.	.	.
CCOc1cc(C2NN=C(c3ccccc3)S2)ccc1OCc1ccc(F)cc1 (stereo not given)	-	-	14µM	-	-	-
CCOc1cc(C2NN=C(c3ccccc3)S2)ccc1OCc1ccccc1Cl (stereo not given)	-	-	10µM	-	-	-
CCOc1cc2c(cc1OCC)C(c1ccc(F)cc1)NCC2 (stereo not given)	-	-	-	-	-	-
COc1ccc(OCC(=O)Nc2ccc3c(c2)N(C)C(=O)c2ccccc2S3)cc1	-	.	-	.	.	.
CCCC1=Nc2cc(C(=O)NC3CCCCC3)ccc2Sc2ccc(C)cc21	-	.	-	.	.	.
OCCCc1cn(-c2ccccc2)c2ccccc12	-	-	13µM	-	-	-
CCc1nc(N2CCN(C(=O)CCCl)CC2)c2c3c(sc2n1)CCCC3	-	.	20µM	.	-	.
CCOC(=O)c1nc2sc3c(c2c(=O)[nH]1)CCCC3	-	-	-	-	-	?
CCOC(=O)c1nc(N2CCN(C(=O)OCC)CC2)c2c3c(sc2n1)CCCC3	-	-	-	-	16µM	-
COC(=O)c1cnn(-c2ccc(C(=O)Nc3cccc(C(C)=O)c3)cc2)c1N	-	.	-	.	.	.
SMILES	Abeta yeast res	S-ASM inh	TDP-43 yeast inh	Rango complex inh	aSyn yeast inh	Rango release inh
Cc1cc(C)c(C(=O)NC2CC(C)(C)Cc3c2cnn3-c2ccccc2)o1 (stereo not given)	-	-	16µM	-	-	-
Cc1ccccc1NC(=O)Cn1nc(-c2ccc(F)cc2)c2cnc3ccccc3c21	-	.	-	.	.	.
COc1ccccc1/C=C/c1nc2ccccc2s1	.	.	.	.	-	.
O=S(=O)(c1cccc(Br)c1)N1CCN(c2ncnc3scc(-c4ccccc4)c23)CC1	-	-	-	-	-	-
Cc1csc2ncnc(N3CCN(S(=O)(=O)c4cccc(C(F)(F)F)c4)CC3)c12	-	-	18µM	-	-	-
CCc1nc(Nc2ccccc2)c2oc3ccccc3c2n1	-	-	11µM	-	.	-
Cc1nc(NCCN2CCOCC2)c2oc3ccccc3c2n1	-	-	-	-	-	-
CCc1nc(Nc2ccc(F)cc2)c2oc3ccccc3c2n1	-	-	?	?	-	?
Cc1nc(NCCc2ccccc2)c2oc3ccccc3c2n1	-	-	11µM	-	-	-
COc1ccc(N=NC2=C(O)CC(C)(C)CC2=O)c(OC)c1	-	-	-	52µM	-	-
Cc1ccc(-n2ncc(C(=O)NCc3cccs3)c2C2CCN(C(=O)OC(C)(C)C)CC2)c(C)c1	-	.	?	.	.	.
Cc1c(Cl)cccc1-n1ncc(C(=O)NCc2cccs2)c1C1CCN(C(=O)OC(C)(C)C)CC1	?	.	32µM	.	.	.
Cc1ccc(C)c(NC(=O)c2cnn(-c3cccc(F)c3)c2C2CCN(C(=O)OC(C)(C)C)CC2)c1	-	.	35µM	.	.	.
CN(Cc1ccccc1)c1nnc(NC(=O)Nc2cccc(Br)c2)s1	-	.	-	.	.	.
O=C(CCl)N=c1sccn1Cc1ccc(Cl)cc1Cl	-	-	-[9.22 µM]	-	-	-
O=C(CCl)N=c1sccn1Cc1ccccc1Cl	-	-	22µM	-	-	-
COc1ccc2nc3cccc(OC)c3nc2c1	?	-	22µM	?	-	?
CCOc1ccc(S(=O)(=O)N(C(=O)c2ccncc2)c2ccc3oc(C)c(C(=O)OC)c3c2)cc1	-	.	-	.	.	.
CCc1ccc(S(=O)(=O)N(C(=O)c2ccncc2)c2ccc3oc(C)c(C(=O)OC)c3c2)cc1	-	.	20µM	.	.	.
COc1ccc(C(=O)c2sc(Nc3ccccc3F)nc2N)cc1	-	-	20µM	-	-	-
COc1ccc(C(=O)c2sc(Nc3ccccc3)nc2N)cc1	-	-	-	-	-	-
CC(=O)Nc1cc(C(=O)NCc2ccc(C)cc2)ccc1Sc1ccc(C)cc1	-	.	20µM	.	.	.
C1=CN2CC=Cc3cc(/C=C/c4ccnc5ccccc45)cc(c32)C1	.	.	.	.	-	.
Cc1cccc(C)c1OCC(=O)NCC1COc2ccccc2O1 (stereo not given)	-	-	16µM	-	-	-
CCCCn1nc(C(=O)NCC2COc3ccccc3O2)c2ccccc2c1=O (stereo not given)	-	-	?	-	-	-
Cn1nc(C(=O)NCC2COc3ccccc3O2)c2ccccc2c1=O (stereo not given)	-	-	20µM	-	-	-
N#Cc1ccc(/C=C2\C=Cc3ccccc32)cc1	.	.	.	.	-	.
O=C(Cc1ccc(-n2cccc2)cc1)N1CCN(c2ccccc2F)CC1	-	-	18µM	-	-	-
CCNc1nc(N)nc(-c2cc(Cl)ccc2O)n1	-	-	3.2µM	?	-	-
O=C(Cc1ccc(Cl)cc1)NO	.	.	.	.	-	.
